{"source": "patent US12692237B2", "about": "“Continuous method for preparing tricyanoimidazole” (UCHICAGO ARGONNE, LLC, priority 2022, dated 2026)", "assay": "Examination of aging time / stability of diazonium solution", "conditions": "MeCN/DMSO/water, aged 10 to 1440 min, 20 °C", "data": [{"substance": "4,5-dicyano-1H-imidazole-2-diazonium", "values": [{"measurement": "Stability of diazonium in solution (HPLC after quench into KCN/CuCN)", "result": "stable in solution"}, {"measurement": "Stability of diazonium in solution (HPLC after quench into KCN/CuCN)", "setting": "listed as Diazonium", "result": "stable"}]}]}
